Measurements reported in ChEMBL document CHEMBL2069197 (ACS Med Chem Lett, 2012).

Experiment: Half life in aqueous media at pH 7
Details: buffer

Structure (SMILES): C/C(=N\OC(=O)[C@@H]1CCCN1)[C@H]1CC[C@H]2[C@@H]3CCC4=CC(=O)CC[C@]4(C)[C@H]3CC[C@]12C
- t1/2: 52 min
